pIC50: −log10 of the molar value.
Tests used:
[1] = target: His6-TEV-PPARγ-(234-505) (Homo sapiens, UniProt P37231); assay: TR-FRET Assay to Measure Co-R Peptide Recruitment to PPARγ; details: read-out: TR-FRET i-Ag, Co-R peptide (SMRT-ID2) recruitment, top final concentration 20 μM
[2] = tested on: UM-UC-9 engineered cells; assay: Cell proliferation / short-term viability assay, CellTiter-Glo 144 h; details: read-out: CTGlo 144 h UMUC9.5, G150

The chains behind the UniProt entries cited, without tags or fusion partners. Residues count along the entry.
UniProt P37231, 234-505 limits assumed: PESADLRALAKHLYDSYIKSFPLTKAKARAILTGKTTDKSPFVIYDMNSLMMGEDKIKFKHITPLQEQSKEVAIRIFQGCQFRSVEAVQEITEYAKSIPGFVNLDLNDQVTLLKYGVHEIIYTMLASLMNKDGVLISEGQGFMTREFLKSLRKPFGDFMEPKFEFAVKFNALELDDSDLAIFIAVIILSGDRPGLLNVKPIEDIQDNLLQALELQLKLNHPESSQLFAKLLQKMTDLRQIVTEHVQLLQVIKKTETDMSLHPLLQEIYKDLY

Row | Structure (SMILES) | AC50 [1] | pIC50 [2]
1 | COCC(F)(F)C1(O)CCC(NC(=O)[C@@H]2CCN(C(=O)c3cc(-c4cc(OC)ncc4F)[nH]n3)C3(CC3)C2)CC1 (single isomer, unassigned) [Example 369-B] | 581 nM | 5.91
2 | COc1cc(-c2cc(C(=O)N3CC[C@@H](C(=O)NC4CCC5(CC4)OCCC5(F)F)CC34CC4)n[nH]2)c(F)cn1 (single isomer, unassigned) [Example 370-A] | 5 nM | 9.05
3 | COc1cc(-c2cc(C(=O)N3CC[C@@H](C(=O)NC4CCC5(CC4)OCCC5(F)F)CC34CC4)n[nH]2)c(F)cn1 (single isomer, unassigned) [Example 370-B] | 34.7 nM | 7.31
4 | COc1cc(-c2cc(C(=O)N3CC[C@H](C(=O)NCC4CCS(=N)(=O)C4(C)C)CC34CC4)n[nH]2)c(F)cn1 (single isomer, unassigned) [Example 372-B] | 841 nM | < 5.00
5 | COc1cc(-c2cc(C(=O)N3CC[C@H](C(=O)NCC4CCS(=N)(=O)C4(C)C)CC34CC4)n[nH]2)c(F)cn1 (single isomer, unassigned) [Example 372-C] | 791 nM | < 5.00
6 | COc1cc(-c2cc(C(=O)N3CC[C@H](C(=O)NCC4CCS(=N)(=O)C4(C)C)CC34CC4)n[nH]2)c(F)cn1 (single isomer, unassigned) [Example 372-D] | 1410 nM | < 5.00
7 | COc1cc(-c2cc(C(=O)N3CC[C@H](C(=O)NCC4CCS(=N)(=O)C4(C)C)CC34CC4)n[nH]2)c(F)cn1 (single isomer, unassigned) [Example 372-E] | 577 nM | < 5.00
8 | COc1cc(-c2cc(C(=O)N3CC[C@H](C(=O)NCC4CCS(=N)(=O)C4(C)C)CC34CC4)n[nH]2)c(F)cn1 (single isomer, unassigned) [Example 372-F] | 846 nM | < 5.00
9 | COc1cc(-c2cc(C(=O)N3CC[C@H](C(=O)NC4CCC(O)(C(F)(F)C(F)(F)F)CC4)CC34CC4)n[nH]2)c(F)cn1 (single isomer, unassigned) [Example 373-A] | 3.2 nM | 9.05
10 | COc1cc(-c2cc(C(=O)N3CC[C@H](C(=O)NC4CCC(O)(C(F)(F)C(F)(F)F)CC4)CC34CC4)n[nH]2)c(F)cn1 (single isomer, unassigned) [Example 373-B] | 69.4 nM | 6.89
11 | COc1cc(-c2cc(C(=O)N3CC[C@H](C(=O)NC4CCC5(CC4)OCC5(F)F)CC34CC4)n[nH]2)c(F)cn1 (single isomer, unassigned) [Example 374-A] | 8.1 nM | 8.18
12 | COc1cc(-c2cc(C(=O)N3CC[C@H](C(=O)NC4CCC5(CC4)OCC5(F)F)CC34CC4)n[nH]2)c(F)cn1 (single isomer, unassigned) [Example 374-B] | 50 nM | 7.21
13 | COc1cc(-c2cc(C(=O)N3CC[C@H](C(=O)NC4CCC(O)(C(C)(F)F)CC4)CC34CC4)n[nH]2)c(F)cn1 (single isomer, unassigned) [Example 375-A] | 158 nM | 6.64
14 | COc1cc(-c2cc(C(=O)N3CC[C@H](C(=O)NC(C)c4ncc(F)cc4Cl)CC34CC4)n[nH]2)c(F)cn1 (single isomer, unassigned) [Example 377-A] | 6.3 nM | 7.60
15 | COc1cc(-c2cc(C(=O)N3CC[C@H](C(=O)NC(C)c4ncc(F)cc4Cl)CC34CC4)n[nH]2)c(F)cn1 (single isomer, unassigned) [Example 377-B] | 41.1 nM | 7.36
16 | COc1cc(-c2cc(C(=O)N3CC[C@H](C(=O)NC4CN(CC(C)(C)F)CC4(F)F)CC34CC4)n[nH]2)c(F)cn1 (single isomer, unassigned) [Example 379-A] | 32.1 nM | 7.24

Row | Structure (SMILES) | AC50 [1] | pIC50 [2]
17 | COc1cc(-c2cc(C(=O)N3CC[C@H](C(=O)NC4CN(CC(C)(C)F)CC4(F)F)CC34CC4)n[nH]2)c(F)cn1 (single isomer, unassigned) [Example 379-B] | 7.7 nM | 8.14
18 | COc1cc(-c2cc(C(=O)N3CC[C@H](C(=O)NC4CCOc5ccc(C)nc54)CC34CC4)n[nH]2)c(F)cn1 (single isomer, unassigned) [Example 380-A] | 19.3 nM | 7.65
19 | COc1cc(-c2cc(C(=O)N3CC[C@H](C(=O)NC4CCOc5ccc(C)nc54)CC34CC4)n[nH]2)c(F)cn1 (single isomer, unassigned) [Example 380-B] | 45.4 nM | 6.86
20 | COc1cc(-c2cc(C(=O)N3CC[C@H](C(=O)NCC4CCc5[nH]nc(C)c5C4)CC34CC4)n[nH]2)c(F)cn1 (single isomer, unassigned) [Example 382-A] | 5.2 nM | 7.74
21 | COc1cc(-c2cc(C(=O)N3CC[C@H](C(=O)NCC4CCc5[nH]nc(C)c5C4)CC34CC4)n[nH]2)c(F)cn1 (single isomer, unassigned) [Example 382-B] | 5.1 nM | 7.93
22 | COc1cc(-c2cc(C(=O)N3CC[C@H](C(=O)NC4CCOc5cc(F)cnc54)CC34CC4)n[nH]2)c(F)cn1 (single isomer, unassigned) [Example 383-A] | 27.4 nM | 7.15
23 | COc1cc(-c2cc(C(=O)N3CC[C@H](C(=O)NC4CCOc5cc(F)cnc54)CC34CC4)n[nH]2)c(F)cn1 (single isomer, unassigned) [Example 383-B] | 17.5 nM | 7.41
24 | Cc1cc(-c2cc(C(=O)N3CCC(C(=O)NCc4ncc(F)cc4Cl)CC34CC4)n[nH]2)c(F)cn1 (single isomer, unassigned) [Example 385-A] | 466 nM | 6.03
25 | Cc1cc(-c2cc(C(=O)N3CCC(C(=O)NCc4ncc(F)cc4Cl)CC34CC4)n[nH]2)c(F)cn1 (single isomer, unassigned) [Example 385-B] | 5.8 nM | 7.97
26 | COc1cc(-c2cc(C(=O)N3CC[C@H](C(=O)NC4CCN(c5cccnc5)C4)CC34CC4)n[nH]2)c(F)cn1 (single isomer, unassigned) [Example 390-A] | 6.8 nM | 8.25
27 | COc1cc(-c2cc(C(=O)N3CC[C@H](C(=O)NC4CCN(c5cccnc5)C4)CC34CC4)n[nH]2)c(F)cn1 (single isomer, unassigned) [Example 390-B] | 5.8 nM | 7.42
28 | COc1cc(-c2cc(C(=O)N3CC[C@H](C(=O)NC4CCN(C5COC5)C4)CC34CC4)n[nH]2)c(F)cn1 (single isomer, unassigned) [Example 396-A] | 66.2 nM | 6.60
29 | COc1cc(-c2cc(C(=O)N3CC[C@H](C(=O)NC4CCN(C5COC5)C4)CC34CC4)n[nH]2)c(F)cn1 (single isomer, unassigned) [Example 396-B] | 90.5 nM | 6.67
30 | COCCC(F)(F)C1(O)CCC(NC(=O)[C@H]2CCN(C(=O)c3cc(-c4cc(OC)ncc4F)[nH]n3)C3(CC3)C2)CC1 (single isomer, unassigned) [Example 398-A] | 7 nM | 8.19
31 | COCCC(F)(F)C1(O)CCC(NC(=O)[C@H]2CCN(C(=O)c3cc(-c4cc(OC)ncc4F)[nH]n3)C3(CC3)C2)CC1 (single isomer, unassigned) [Example 398-B] | 1460 nM | 5.82
32 | COc1cc(-c2cc(C(=O)N3CCC(C(=O)N[C@H]4CC[C@@](O)(C(F)(F)F)CC4)CC3C)n[nH]2)c(F)cn1 (single isomer, unassigned) [Example 401-A] | 25.7 nM | 7.04

— patent publication US12606541B2, “PPARg modulators and methods of use” (Eisai R&D Management Co., Ltd., priority 2020, dated 2026)
